Values quoted from earlier work in US6689383B1, “Chromium-histidine complexes as nutrient supplements” (The United States of America as represented by the …, priority 1999, dated 2004).

Details: in vivo; cited from earlier work

Chromium polynicotinate
Absorption (in words): poorly-absorbed
